The experiment deals with T1, human neutrophil elastase (HNE) (Homo sapiens, UniProt P08246).
T1 construct: gene ELANE
T1 sequence (P08246 30-247): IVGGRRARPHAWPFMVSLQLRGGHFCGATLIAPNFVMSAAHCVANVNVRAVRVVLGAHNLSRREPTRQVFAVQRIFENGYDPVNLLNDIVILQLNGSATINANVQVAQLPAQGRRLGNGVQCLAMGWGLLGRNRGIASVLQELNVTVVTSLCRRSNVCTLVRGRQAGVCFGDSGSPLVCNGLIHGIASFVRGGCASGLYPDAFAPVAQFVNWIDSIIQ
As to the kind of experiment: chromogenic elastase assay (MeOSuc-AAPV-pNA, […] nm), dose-response. It counts as biochemical.

One compound from publication PMC12250763, “Synergistic and Antagonistic Mechanisms of Arctium lappa L. Polyphenols on Human Neutrophil Elastase Inhibition: Insights from Molecular Docking and Enzymatic Kinetics” (Molecules, 2025) can be followed below.

The structures appear in SMILES notation.

In the case of `CC(C)(C)C(=O)Oc1ccc(S(=O)(=O)Nc2ccccc2C(=O)NCC(=O)O)cc1` [SLT, sivelestat, reference compound], half-maximal inhibition (IC50) required 49.8 nM.
